Antibody variant affinities, Ab-14 heavy chain, assay B

Values reported by Li et al. 2023, doi:10.1038/s41467-023-39022-2 (FLAb copy).

Binding partner: SARS-CoV-2 spike HR2 peptide, sequence PDVDLGDISGINAS.

Each scFv is VH, a (GGGGS)3 linker, VL, as in the parent Ab-14, and differs from it in the CDRs of the heavy chain only.
VH: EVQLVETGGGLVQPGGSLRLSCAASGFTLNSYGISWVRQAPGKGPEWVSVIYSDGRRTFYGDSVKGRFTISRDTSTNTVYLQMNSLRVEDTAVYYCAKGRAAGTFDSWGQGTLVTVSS
VL: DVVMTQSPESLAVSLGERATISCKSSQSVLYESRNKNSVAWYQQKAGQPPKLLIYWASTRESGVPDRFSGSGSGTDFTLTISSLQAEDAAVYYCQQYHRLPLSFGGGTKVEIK

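Phage display of a naive human antibody library on the peptide gave the parent. Designed CDR sequences, proposed from the first random library and measured here. Their group label is 14H_En_Gibbs (En: ensemble of fine-tuned language models; Gibbs: Gibbs sampling). The scFvs were displayed on barcoded MATa yeast, the peptide on MATalpha yeast. Pairs that bind mate more often; barcode pairs of the diploids are counted by sequencing. Each replicate has its own calibration line, from reference interactions of the BCL2 family. There are six technical replicates.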

The parent's heavy chain CDRs are GFTLNSYGIS, VIYSDGRRTFYGDSVK, GRAAGTFDS; each variant's own CDRs replace them letter for letter. Affinities are written as log10 Kd with Kd in nM; a lower number is a better binder. Replicates are averaged; those with no signal do not enter the mean. "ND" means that the variant was in the library but no mating with the target was seen in that replicate; the authors take this as a sign of poor binding, and no number exists.

CDR-H1,CDR-H2,CDR-H3,log10 Kd (nM) by replicate,"log10 Kd (nM), mean",control signals
GFQLDEYGIS,VIYADGQRSAYSENVK,GQHGGMTVS,ND / ND / ND / ND / ND / ND,ND,0 of 18
GFDLQEYGIS,VIYADGQRTKVADNVK,GNVTFTAGV,ND / ND / ND / ND / ND / ND,ND,0 of 18
GFDLEDYGIS,VIYADGKRQQYAQKFK,GTIGGTFVD,1.36 / 1.22 / 1.50 / 0.90 / 2.77 / 1.78,1.59,0 of 18
GFDINEYGIS,VMYADGSRVVYRDNVK,GFQGGTFDM,1.06 / 0.27 / 1.19 / 0.05 / 1.02 / 1.84,0.90,0 of 18
EFDLNNYGIS,VIYADGLRTAYVTNFK,GINAGTFTS,ND / ND / ND / ND / ND / ND,ND,0 of 18
GFNLDEYGVS,VIYADGKRCQYTNNFK,GENAGFFML,ND / ND / ND / ND / ND / ND,ND,0 of 18
GFKLQDYGIS,VIYADGVRYAFQNSVK,GQIAGTFNS,ND / 2.97 / ND / 3.08 / 2.56 / ND,2.87,0 of 18
GFELDEYGIS,VIYADGLRYHYANSVK,GEMAGTFTT,1.73 / 1.38 / 1.57 / 1.70 / 1.52 / ND,1.58,0 of 18
GNSLQEYGIS,VIYADGMRTAYTDSVK,GLFGYTFLD,ND / ND / ND / ND / ND / ND,ND,0 of 18
GINLEEYGIS,VIYADGRRKAYTDKVK,GGNGVMTFV,ND / ND / ND / ND / ND / ND,ND,0 of 18
GFDLQEYGVS,VIYADGRRAQYASKFK,GNFSGNFDK,-0.47 / -0.26 / -0.61 / -0.69 / -0.80 / -0.66,-0.58,1 of 18 (0.51)
GFGLDEYGIS,VIYADGKRYAYKNSVK,GGDGVNGLH,ND / ND / ND / ND / ND / ND,ND,0 of 18
GFNLDEYGIS,VIYADGVRKAYASKVK,GKVHWFNLQ,ND / ND / ND / ND / ND / ND,ND,0 of 18
GFSLNEYGIS,VIYADGKRSHYADSVK,GLISGFFDI,ND / ND / ND / ND / ND / ND,ND,0 of 18
GKKLDEYGIS,VIYADGKRNFYSNSVK,GGMAGGLTV,ND / ND / ND / ND / ND / ND,ND,0 of 18
EFDLNEYGVS,VIYADGHRTFYADHVK,GTEAGVFFD,2.51 / ND / 2.59 / 2.00 / ND / ND,2.37,3 of 18 (2.58)
GFNLSEYGIS,VIYADGKKTQYSNAVK,GANGGIFNV,ND / 3.05 / ND / ND / ND / ND,3.05,1 of 18 (0.69)
GFNLDEYGIS,VIYADGVRKAYANKVK,GKVHWFHLQ,ND / ND / ND / ND / ND / ND,ND,0 of 18
GDSLAEYGIS,VIYADGSRSKYADAFK,GQVAGYFGV,ND / ND / ND / ND / ND / ND,ND,0 of 18
GEDLQEYGIS,VIYADGLRTAYSDNFK,GHLGGQFDH,ND / ND / ND / ND / ND / ND,ND,1 of 18 (1.81)
GADLNEYGIS,VIYADGDRKAFQDDVK,GTNGGDFDE,ND / ND / ND / ND / ND / ND,ND,0 of 18
GFNLNDYGIS,VIYADGHRRYYVDNVK,GHLGGTFFM,1.93 / ND / ND / ND / ND / ND,1.93,0 of 18
GFEVEEYGIS,VIYADGRRVAYAKDVK,GMNFDGIVV,ND / ND / ND / ND / ND / ND,ND,0 of 18
GFDLAEYGIS,VIYADGMRVAYNQNVK,GTGGGSFNF,ND / ND / ND / ND / ND / ND,ND,0 of 18
GNNLDEYGIS,VIYADGQRTYYAEDVK,GKTGDNAFI,1.37 / 1.02 / 1.17 / 0.76 / 1.21 / 1.12,1.11,1 of 18 (2.90)
GKDIDEYGIS,VIYADGRRTFVIDSVK,GMNSGFVLA,ND / ND / ND / ND / ND / ND,ND,0 of 18
GKDLEEYGIS,VIYADGHRAAYADSVK,GINMDIMTV,ND / 2.57 / ND / ND / ND / ND,2.57,0 of 18
GFDLEKYGIS,VIYADGRRSVYADNVK,GMDGATNGF,ND / ND / ND / 3.55 / ND / ND,3.55,1 of 18 (1.66)
GFGIGEYGIS,VIYADGRRTFYSDDVK,GNMIVTGVD,ND / ND / ND / 1.84 / ND / ND,1.84,0 of 18
GFGLGEYGIS,VIYADGRRTFYSDDVK,GNMIVAGVD,-0.66 / -0.63 / -0.54 / -0.74 / -1.05 / -0.96,-0.76,0 of 18
GFDLDEQGIS,VIYADGLRVAYKDRVK,GAGSGVIDM,ND / ND / ND / ND / ND / ND,ND,0 of 18
GFDLEEYGIS,VIYADGLRVFYADSVK,GGFDGYKVR,ND / ND / ND / ND / ND / ND,ND,0 of 18
GFDLNEQGIS,VIYADGTRTAYANTVK,GEVAGKFPD,ND / ND / ND / ND / ND / ND,ND,0 of 18
GFDLMEYGVS,VIYADGQRAFYTDSVK,GKGAGIALI,1.31 / 1.65 / 1.31 / 2.40 / 1.72 / 2.04,1.74,0 of 18
GFDFQEYGIS,VIYADGQRSNYSDSVK,GNIGAIFDD,ND / ND / ND / ND / ND / ND,ND,1 of 18 (2.28)
GFDLDEYGIS,VIYADGGRVSYAQNVK,GLVGKGGVV,ND / ND / ND / ND / ND / ND,ND,0 of 18

The opening 4 entries, copied out:

CDR-H1,CDR-H2,CDR-H3,log10 Kd (nM) by replicate,"log10 Kd (nM), mean",control signals
GFQLDEYGIS,VIYADGQRSAYSENVK,GQHGGMTVS,ND / ND / ND / ND / ND / ND,ND,0 of 18
GFDLQEYGIS,VIYADGQRTKVADNVK,GNVTFTAGV,ND / ND / ND / ND / ND / ND,ND,0 of 18
GFDLEDYGIS,VIYADGKRQQYAQKFK,GTIGGTFVD,1.36 / 1.22 / 1.50 / 0.90 / 2.77 / 1.78,1.59,0 of 18
GFDINEYGIS,VMYADGSRVVYRDNVK,GFQGGTFDM,1.06 / 0.27 / 1.19 / 0.05 / 1.02 / 1.84,0.90,0 of 18

The parent sequence was in this pool as ten entries: three were never detected, three once, and four in most replicates, with averages from 0.34 to 2.37. Three control strains display no target. For all heavy chain designs, 1% of the pairings with them gave a signal, with a median of 2.08 and one signal in twenty below 0.84, so weak values seen in few replicates may be background. Also given: how often the same scFv was detected with the empty control strains, with their mean in brackets. The range of this assay differs from that of the first round, and the authors advise against merging the two. The authors' rule: three or more of the six replicates give a measured affinity, fewer mean a poor binder.